{"source": "ChEMBL document CHEMBL1811876", "about": "“Antitumor agents 288: design, synthesis, SAR, and biological studies of novel heteroatom-incorporated antofine and cryptopleurine analogues as potent and selective antitumor agents” (J Med Chem, 2011)", "tested_on": "HUVEC", "experiment": "Toxicity against HUVEC", "type": "cell-based", "conditions": "human"}
{"smiles": "COc1ccc2c3c(c4cc(OC)c(OC)cc4c2c1)C[C@H]1CCCCN1C3", "note": "[CRYPTOPLEURINE]", "values": [{"measurement": "GI50", "result": 11, "unit": "nM"}]}
